# AlphaSeq binding of Ab-14 light chain variants to a spike HR2 peptide

The measurements come from Li et al. 2023 (doi:10.1038/s41467-023-39022-2) through the FLAb antibody collection.

The target is the same throughout: PDVDLGDISGINAS, from the HR2 region of SARS-CoV-2 spike.

Ab-14 is the parent antibody, in scFv form: VH, then a 15-residue (Gly4Ser)3 linker, then VL. The heavy chain is unchanged in all variants.
VH: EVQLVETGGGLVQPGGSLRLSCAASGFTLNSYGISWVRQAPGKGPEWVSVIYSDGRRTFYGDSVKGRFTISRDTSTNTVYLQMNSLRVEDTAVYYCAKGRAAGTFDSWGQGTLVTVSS
VL: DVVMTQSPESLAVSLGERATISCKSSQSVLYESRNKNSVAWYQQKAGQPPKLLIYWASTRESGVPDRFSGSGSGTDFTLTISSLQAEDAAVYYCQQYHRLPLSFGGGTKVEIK

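The parent was found by panning a naive human phage display library on the peptide. These sequences belong to a second round, designed from the earlier measurements on random variants of the parent. Group labels follow the data file (Ctrl: baseline library sampled from a position-specific scoring matrix, with some repeated check sequences; En: ensemble of fine-tuned language models; GP: Gaussian process model; HC: hill climbing; Gen: genetic algorithm; Gibbs: Gibbs sampling; a sequence that several methods proposed may carry one label only). The assay is AlphaSeq: two haploid yeast populations carry antibody and antigen on their surface. Mating (16 h, 30 °C) was followed by selection of diploids and sequencing of their barcodes. A regression on co-assayed BCL2-family reference pairs converts the normalised counts of each replicate to an apparent Kd. Mating was done six times.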

Variants are written as CDR1, CDR2 and CDR3 of the light chain (limits as in the source). Parent: KSSQSVLYESRNKNSVA, WASTRES, QQYHRLPLS.
Each Kd is an estimate from the mating assay, the geometric mean of the replicates in which the pair was seen; lower is stronger.
Where no diploid with the target was found in any replicate, the entry reads "nd": below detection, most likely a poor binder, though not proof of it.
Of ten entries with the parent sequence, four were seen in most replicates (averages 2.2 nM to 240 nM), three in one and three in none, so single entries are noisy.

For KFSPSVLYESRNKNSVA, EASTRES, QQYHRLPLS [GP_Gen], the assay gave 14 nM (6 of 6 replicates).
For KLSQVTHSESRNKNSIA, EMVTREV, QQYDRLPLI [En_HC], the assay gave 32 nM (6 of 6 replicates).
For KLLQTVMNETMNRNNVA, HMTTRED, QQYHRLPLS [En_HC], the assay gave 5.1 nM (6 of 6 replicates).
For KLSQVTHSEHKLKNSIA, EMVTREK, QQYDRLPLS [En_HC], the assay gave 6.7 nM (6 of 6 replicates).
For KMSQSDLYESRNKNSVA, GASTRES, QQYHRLPLS [GP_Gen], the assay gave 1.2 nM (6 of 6 replicates).
For NLVGRVPDNYTERNAIA, DMHCRAG, QQYSRLPLS [En_Gibbs], the assay gave 11 nM (6 of 6 replicates).
For YMSSQAAQDRNQQYSIA, GVDYREK, QQYYHLPLS [En_Gibbs], the assay gave 8.6 nM (6 of 6 replicates).
For RLWQQMYGFNIHANAIA, SGKERYW, QQYARLPLS [En_Gibbs], the assay gave 190 nM (6 of 6 replicates).
For KSSQSVLYESRNKNSVA, SASTRES, SQYHRLPLS [Ctrl], the assay gave 1.1 µM (6 of 6 replicates).
For KLSQSTSYESLNKNSVA, ELTTRGG, QQYNRLPLS [En_HC], the assay gave 76 nM (3 of 6 replicates).
For KSSQSVLYESRNKNSVA, GASTHEC, QQYHRLPLS [Ctrl], the assay gave 29 nM (6 of 6 replicates).
For MISQLYNMGTFAINSVA, QASLRNE, QQYDRLPLA [En_Gen], the assay gave nd (0 of 6 replicates).
For KIYHGVTGTSRKGNSVA, QAETRVD, QQYHRLPLM [En_HC], the assay gave 2.7 nM (6 of 6 replicates).
For KSSQSVLYESGNKNSVA, QASTRED, QQYHRLPLS [GP_HC], the assay gave 1.8 nM (6 of 6 replicates).
For KSSQSVPYESRNKNSVA, DASTRES, QQYHRLPAS [Ctrl], the assay gave 740 pM (6 of 6 replicates).
For ILQQSMLYESRNKNSVA, DASVRED, QQYHRLPLS [GP_Gibbs], the assay gave 110 nM (5 of 6 replicates).
For HLSQSMLYESRNKNSVA, NASTRMS, QQYHRLPLS [GP_Gen], the assay gave 490 pM (6 of 6 replicates).
For KLSQSDLYESRNKNSVA, QASQRES, QQYHRLPLS [GP_Gen], the assay gave 1.7 nM (6 of 6 replicates).
For KLSMSDLMESRNWNAVA, HASTREE, QQYHRLPLS [GP_Gibbs], the assay gave 2.3 nM (6 of 6 replicates).
For HMSMLTLQGMRHRNSVA, QMTTREN, QQYDRLPLS [En_Gen], the assay gave 7.8 nM (6 of 6 replicates).
For KLSQSELYESRMKNSVA, NASQREQ, QQYHRLPLS [GP_Gen], the assay gave 870 pM (6 of 6 replicates).
For KLGAWMYWPTEAKYAIA, QDEMRVH, QQYDRLPLI [En_Gibbs], the assay gave nd (0 of 6 replicates).

The remaining entries, values ahead:

Result 1.4 nM (6 of 6 replicates), variant KVSEFMRGLMQKTDSIA, DNTTRNN, QQYDRLPLS [En_Gen].
Result 1.0 nM (6 of 6 replicates), variant KLMGSVLYESRMKNSVA, GASQREK, QQYHRLPLS [GP_Gibbs].
Result 750 pM (6 of 6 replicates), variant TVSQVHEMLSRNKNSVA, DMNTREN, QQYDRLPLS [En_HC].
Result 200 nM (2 of 6 replicates), variant KSKQSVLYESRNKNSVA, WASTRES, QQYMRLPLS [Ctrl].
Result 4.8 nM (6 of 6 replicates), variant MIDWGELPNGQQTSSIA, QGHLRAG, QQYGRLPLC [En_Gibbs].
Result 2.1 nM (6 of 6 replicates), variant TLYGLSMSMSKNKNNVA, EMSTREN, QQYDRLPLA [En_Gen].
Result nd (0 of 6 replicates), variant VSSQSTLYESRNKNSVA, WASTRES, QQYHRWPLS [Ctrl].
Result 35 nM (6 of 6 replicates), variant KSSQSVLSESRLKNSVA, WASTRES, QQYFRLPLS [Ctrl].
Result 160 nM (1 of 6 replicates), variant KSSQSGLYESRNKNSVA, WASTRES, QQYHRLPWS [Ctrl].
Result 39 nM (6 of 6 replicates), variant MITAAMNAYGGNRSNIA, DKEISVN, QQYHHLPLS [En_Gibbs].
Result 3.0 nM (6 of 6 replicates), variant KVQQSELYESRNKNSVA, EASQRES, QQYHRLPLS [GP_Gen].
Result 260 pM (6 of 6 replicates), variant KAQQGELYESRDWNNVA, DASKRLS, QQYHRLPLS [GP_Gibbs].
Result 4.0 nM (6 of 6 replicates), variant SLAYTQHFGQTGGKAIA, EVATRCQ, QQYFRLPLG [En_Gibbs].
Result 1.5 nM (6 of 6 replicates), variant KSLTSVLYESNNKNSVA, HASTRED, QQYHRLPLS [GP_HC].
Result 2.7 nM (6 of 6 replicates), variant KFGISKEGVTRTGKSIA, GAQTIDE, QQYARLPLA [En_Gibbs].
Result 2.9 nM (6 of 6 replicates), variant KVLQSVVYESRNKNSVA, HASTRED, QQYHRLPLS [GP_HC].
Result 370 pM (6 of 6 replicates), variant KISQSWLYESRNKNSIA, NANQREQ, QQYHRLPLS [GP_Gibbs].
Result 6.3 nM (6 of 6 replicates), variant KSSSSTLYESRNKNSVA, WASTRES, QQYHRLPLS [Ctrl].
Result nd (0 of 6 replicates), variant KSSHSVWYESQNKNSVA, WASTRES, QQVHRLPLS [Ctrl].
Result 340 pM (6 of 6 replicates), variant KLSWSWLYESRNKNSVA, NASTRES, QQYHRLPLS [GP_Gen].
Result 35 nM (2 of 6 replicates), variant NLKENNVDNQTFYSNIA, EADIREL, QQYYRLPLQ [En_Gibbs].
Result 790 pM (6 of 6 replicates), variant KISESWLYEPLNKNSVA, NASTRQM, QQYHRLPLS [GP_Gibbs].
Result 500 pM (6 of 6 replicates), variant KLSQSVDYESRNKNSVA, DASTRMS, QQYHRLPLS [GP_Gen].

Picked from the list: the 3 lowest averages where every replicate gave a value.

{"CDR-L1": "KAQQGELYESRDWNNVA", "CDR-L2": "DASKRLS", "CDR-L3": "QQYHRLPLS", "group": "GP_Gibbs", "Kd (apparent)": "260 pM", "replicates with signal": "6 of 6"}
{"CDR-L1": "KLSWSWLYESRNKNSVA", "CDR-L2": "NASTRES", "CDR-L3": "QQYHRLPLS", "group": "GP_Gen", "Kd (apparent)": "340 pM", "replicates with signal": "6 of 6"}
{"CDR-L1": "KISQSWLYESRNKNSIA", "CDR-L2": "NANQREQ", "CDR-L3": "QQYHRLPLS", "group": "GP_Gibbs", "Kd (apparent)": "370 pM", "replicates with signal": "6 of 6"}

Background: pairings of all light chain designs with three empty control strains gave a value in 4% of cases (median 430 nM, 5th percentile 38 nM). Values in that range, when seen in few replicates, are hard to tell from nonspecific mating.
The range of this assay differs from that of the first round, and the authors advise against merging the two.
In the paper, a design with two or fewer of six values counts as a poor binder.